From paper PMC9727182, “Identification of pharmacokinetic markers for safflower injection using a combination of system pharmacology, multicomponent pharmacokinetics, and quantitative proteomics study” (Frontiers in Pharmacology, 2022) come the findings set out here.

The data set is described as follows: Stability of 6 compounds of SI in rat plasma. The note with it: spiked 40 ng/mL. From the text:
The LC-MS method was validated by linearity, limits of detection (LOD), limits of quantification (LOQ), precision, accuracy, extraction recovery, matrix effect and stability of the 6 ingredients in rat plasma. Calibration curves were plotted using weighted linear regression of the peak area ratio of analyte to the IS against the corresponding nominal concentration of the analyte. LOD and LOQ were defined as the detectable concentration at which the ratio of signal to noise was more than 3 and 10, respectively. Intra- and inter-day accuracy and precision were assessed by detecting quality control (QC) samples using five replicates of rat samples at three concentration levels on one or three validation days, respectively. Accuracy and precision were expressed by relative error (RE) and relative standard deviation (RSD), respectively. The extraction recovery and matrix effect of the 6 components at above-mentioned three concentration levels were determined. Stability was assessed under the condition of placing un-treated plasma samples at room temperature for 6 h, and extracted plasma samples in auto-sampler for 10 h, as well as placing plasma samples within freeze-thaw three cycles and at −80 °C for 15 days.

In the case of `O=Cc1ccc(O)cc1` [p-HBA, p-hydroxybenzaldehyde], the “6h at room temperature RE” value is -10.50%.
